Read-outs that look alike come from different tables or passages of the source.
Columns and labels:
[1] = target: T1, recombinant human BCAT2 enzyme (Homo sapiens, UniProt O15382); experiment: In vitro assay 1b: BCAT2 biochemical assay (coupled LeuDH/NADH fluorescence readout); note: recombinant human BCAT2 0.75 nM
T1 construct: purchased ATGen (South Korea) ATGP1523
T1 sequence (O15382 28-392): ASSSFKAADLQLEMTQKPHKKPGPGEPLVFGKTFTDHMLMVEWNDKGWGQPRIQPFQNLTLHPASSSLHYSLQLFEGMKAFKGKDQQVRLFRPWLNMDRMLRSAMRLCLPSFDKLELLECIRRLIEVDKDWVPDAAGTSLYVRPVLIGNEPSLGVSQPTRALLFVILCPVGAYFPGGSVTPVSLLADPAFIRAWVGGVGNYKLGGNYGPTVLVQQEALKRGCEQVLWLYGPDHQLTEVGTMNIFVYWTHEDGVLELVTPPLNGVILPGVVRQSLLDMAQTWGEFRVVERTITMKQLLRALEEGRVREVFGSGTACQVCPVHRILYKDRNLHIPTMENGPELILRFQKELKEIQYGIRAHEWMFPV

U87-MG cells = experiment: In vitro assay 2: BCAT cellular assay, leucine in medium of U87-MG cells; assay type: cell-based; settings: Homo sapiens, U-87 MG, 24 h, 24 hours incubation, leucine level in medium (LeuDH/diaphorase/resazurin readout)
MDA-MB231 cells = experiment: In vitro assay 2: BCAT cellular assay, leucine in medium of MDA-MB231 cells; assay type: cell-based; settings: Homo sapiens, MDA-MB-231, 24 h, 24 hours incubation, leucine level in medium (LeuDH/diaphorase/resazurin readout), read-out: MDAMB-231 IC50
[2] = target: T2, recombinant human BCAT1 enzyme (Homo sapiens, UniProt P54687); experiment: In vitro assay 1a: BCAT1 biochemical assay (coupled LeuDH/NADH fluorescence readout); settings: 32° C., 100 μM leucine, 50 μM α-ketoglutarate, NADH fluorescence over 90 min
T2 construct: purchased ATGen (South Korea) ATGP1479
T2 sequence (P54687 1-386): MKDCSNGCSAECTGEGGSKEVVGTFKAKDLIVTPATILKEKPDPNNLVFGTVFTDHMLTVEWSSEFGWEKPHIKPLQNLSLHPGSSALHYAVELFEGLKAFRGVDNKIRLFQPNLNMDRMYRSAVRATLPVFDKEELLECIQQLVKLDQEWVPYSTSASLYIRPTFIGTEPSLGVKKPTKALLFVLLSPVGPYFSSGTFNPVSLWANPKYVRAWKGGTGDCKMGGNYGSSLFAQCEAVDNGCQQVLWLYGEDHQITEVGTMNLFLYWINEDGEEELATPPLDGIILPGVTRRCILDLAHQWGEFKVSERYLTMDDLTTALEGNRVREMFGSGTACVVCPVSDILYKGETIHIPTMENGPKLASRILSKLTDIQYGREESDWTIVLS

[3] = recombinant human BCAT2 […], 32° C., 100 μM leucine, 50 μM α-ketoglutarate, NADH fluorescence over 90 min

| Molecule | IC50 (U87-MG cells) [µM] | IC50 (MDA-MB231 cells) [µM] | further results |
| --- | --- | --- | --- |
| 4-[4-(Methanesulfonyl)-2,6-dioxo-3,6-dihydropyrimidin-1(2H)-yl]-5-methoxy-2-(2-methylphenoxy)benzonitrile (atrop 2) [Example 81] |  |  | IC50 [1]: 16 µM |
| Cc1ccccc1Oc1cc(-n2c(=O)cc(C(F)(F)F)[nH]c2=O)c(Cl)cc1C#N (racemic) [Example 11, 5-Chloro-4-[2,6-dioxo-4-(trifluoromethyl)-3,6-dihydropyrimidin-1(2H)-yl]-2-(2-methylphenoxy)benzonitrile (rac)] | 3.45 |  |  |
| Cc1ccccc1Oc1cc(-n2c(=O)cc(C(F)(F)F)[nH]c2=O)c(Br)cc1C#N (racemic) [Example 18, 5-Bromo-4-[2,6-dioxo-4-(trifluoromethyl)-3,6-dihydropyrimidin-1(2H)-yl]-2-(2-methylphenoxy)benzonitrile (rac)] | 4 | > 30 |  |
| COc1cc(C#N)c(Oc2ccccc2C)cc1-n1c(=O)cc(C(F)(F)Cl)[nH]c1=O (racemic) [Example 25, 4-{4-[Chloro(difluoro)methyl]-2,6-dioxo-3,6-dihydropyrimidin-1(2H)-yl}-5-methoxy-2-(2-methylphenoxy)benzonitrile (rac)] |  | 23 |  |
| COc1cc(Cl)c(Oc2ccccc2C)cc1-n1c(=O)cc(C(F)(F)F)[nH]c1=O (racemic) [Example 27, 3-[4-Chloro-2-methoxy-5-(2-methylphenoxy)phenyl]-6-(trifluoromethyl)pyrimidine-2,4(1H,3H)-dione (rac)] | 6.5 |  |  |
| Cc1ccccc1Oc1cc(-n2c(=O)cc(C(F)(F)c3ccccc3)[nH]c2=O)c2ccccc2c1Cl (racemic) [Example 29, 3-[4-Chloro-3-(2-methylphenoxy)naphthalen-1-yl]-6-[difluoro(phenyl)methyl]pyrimidine-2,4(1H,3H)-dione (rac)] |  |  | IC50 [1]: 0.2 µM |
| CCCOc1cc(C#N)c(Oc2ccccc2C)cc1-n1c(=O)cc(C(F)(F)F)[nH]c1=O (racemic) [Example 39, 4-(2,6-Dioxo-4-(trifluoromethyl)-2,3-dihydropyrimidin-1(6H)-yl)-5-propoxy-2-(o-tolyloxy)benzonitrile (rac)] | 3 | 20 | IC50 [1, 3]: 4.3 µM; IC50 [2]: 0.723 µM |
| Cc1ccccc1Oc1cc(-n2c(=O)cc(C(F)(F)F)[nH]c2=O)c(OC(F)(F)F)cc1C#N (racemic) [Example 55, 4-[2,6-Dioxo-4-(trifluoromethyl)-3,6-dihydropyrimidin-1(2H)-yl]-2-(2-methylphenoxy)-5-(trifluoromethoxy)benzonitrile (rac)] | 6 |  | IC50 [1, 3]: 4 µM; IC50 [2]: 0.925 µM |
| COc1cc(C#N)c(Oc2ccccc2C)cc1-n1c(=O)cc(-c2ccc(C(F)(F)F)cc2)[nH]c1=O (racemic) [Example 69, 4-{2,6-Dioxo-4-[4-(trifluoromethyl)phenyl]-3,6-dihydropyrimidin-1(2H)-yl}-5-methoxy-2-(2-methylphenoxy)benzonitrile (rac)] |  | > 30 |  |
| COc1cc(C#N)c(Oc2ccccc2C)cc1-n1c(=O)cc(C(N)=O)[nH]c1=O (racemic) [Example 73, 1-[4-Cyano-2-methoxy-5-(2-methylphenoxy)phenyl]-2,6-dioxo-1,2,3,6-tetrahydropyrimidine-4-carboxamide (rac)] |  | > 30 |  |
| Cc1ccccc1Oc1cc(-n2c(=O)cc(C(F)(F)F)[nH]c2=O)c(Cl)cc1C#N (single isomer, unassigned) [Example 13, 5-Chloro-4-[2,6-dioxo-4-(trifluoromethyl)-3,6-dihydropyrimidin-1(2H)-yl]-2-(2-methylphenoxy)benzonitrile (atrop 2)] | 3.28 |  |  |
| COc1ccc(Oc2ccccc2C)cc1-n1c(=O)cc(C(F)(F)F)[nH]c1=O [AE1, 3-[2-Methoxy-5-(2-methylphenoxy)phenyl]-6-(trifluoromethyl)pyrimidine-2,4(1H,3H)-dione] | 15 | > 30 | IC50 [1]: 19 µM |
| Cc1ccccc1Oc1ccc(Cl)c(-n2c(=O)cc(C(F)(F)F)[nH]c2=O)c1 [AE3, 3-[2-Chloro-5-(2-methylphenoxy)phenyl]-6-(trifluoromethyl)pyrimidine-2,4(1H,3H)-dione] |  | 30 | IC50 [1]: 12 µM |
| Cc1cccc(C)c1Oc1cc(-n2c(=O)cc(C(F)(F)F)[nH]c2=O)c(F)cc1C#N [Example 1, 2-(2,6-Dimethylphenoxy)-4-[2,6-dioxo-4-(trifluoromethyl)-3,6-dihydropyrimidin-1 (2H)-yl]-5-fluorobenzonitrile] | 6.25 | 18 |  |
| Cc1ccccc1Oc1cc(-n2c(=O)cc(C(F)(F)F)[nH]c2=O)c(I)cc1C#N [Example 14, 4-[2,6-Dioxo-4-(trifluoromethyl)-3,6-dihydropyrimidin-1(2H)-yl]-5-iodo-2-(2-methylphenoxy)benzonitrile (rac)] | 2.7 | 10.4 |  |
| Cc1ccccc1Oc1cc(-n2c(=O)cc(C(F)(F)F)[nH]c2=O)c(F)cc1C#N [Example 45, 4-[2,6-Dioxo-4-(trifluoromethyl)-3,6-dihydropyrimidin-1(2H)-yl]-5-fluoro-2-(2-methylphenoxy)benzonitrile] |  | 30 |  |
| CCc1cccc(C)c1Oc1cc(-n2c(=O)cc(C(F)(F)F)[nH]c2=O)c(F)cc1C#N [Example 59, 4-[2,6-Dioxo-4-(trifluoromethyl)-3,6-dihydropyrimidin-1(2H)-yl]-2-(2-ethyl-6-methylphenoxy)-5-fluorobenzonitrile] |  |  | IC50 [1]: 16 µM |
